Experimental data published in paper PMC9293779, “Elucidation of binding preferences of YEATS domains to site-specific acetylated nucleosome core particles” (The Journal of Biological Chemistry, 2022).

Molecular target: Unmodified H3 (15–39) (Homo sapiens)
Experiment: ITC
Conditions: domain or fragment; modification not given

B1: AG-fused YEATS2-YEATS domain, Q9ULM3 200-349 (protein)
chain: ETSRLFVKKTIVVGNVSKYIPPDKREENDQSTHKWMVYVRGSRREPSINHFVKKVWFFLHPSYKPNDLVEVREPPFHLTRRGWGEFPVRVQVHFKDSQNKRIDIIHNLKLDRTYTGLQTLGAETVVDVELHRHSLGEDCIYPQSSESDIS
Q: B1 was tested. Which Kd did it give?
A: > 1000 µM

B2: YEATS2-YEATS domain (residues 200–349) for ITC, Q9ULM3 200-349 (protein)
chain: ETSRLFVKKTIVVGNVSKYIPPDKREENDQSTHKWMVYVRGSRREPSINHFVKKVWFFLHPSYKPNDLVEVREPPFHLTRRGWGEFPVRVQVHFKDSQNKRIDIIHNLKLDRTYTGLQTLGAETVVDVELHRHSLGEDCIYPQSSESDIS
Q: How did the Kd turn out when B2 was run?
A: > 1000 µM
